Test results published in patent publication US10722578B2, “Methods and compositions for treating neuroblastoma” (The Children's Hospital of Philadelphia, priority 2008, dated 2020).
Read-outs that look alike come from different tables or passages of the source.

Legend:
[1] = system: NBEBc1 (WT) xenografts; conditions: 100 mg/kg/day oral gavage, 4 weeks, vs vehicle
[2] = system: SKNAS (WT) xenografts; conditions: 100 mg/kg/day oral gavage, 4 weeks, vs vehicle

C[C@@H](Oc1cc(-c2cnn(C3CCNCC3)c2)cnc1N)c1c(Cl)ccc(F)c1Cl [PF-02341066, crizotinib]
Tumor growth delay [1]: significant tumor growth delay
Tumor growth delay ([1]; listed as PF-2341066): significant delayed tumor progression
Tumor growth delay [2]: no tumor growth delay
Tumor growth delay ([2]; listed as PF-2341066): neither a delay in tumor growth
